# Cyclic peptide permeability, from CycPeptMPDB

PAMPA is the parallel artificial membrane permeability assay, which has no cells and reads passive diffusion. Values are log10 P with P in cm/s, so -5 is more permeable than -7.

The entry for CC(C)C[C@@H]1C(=O)N[C@@H](Cc2ccccc2)CC(=O)N2CCC[C@H]2C(=O)N(C)[C@@H](CC(C)C)C(=O)N[C@@H](Cc2ccccc2)C(=O)N[C@@H](Cc2ccccc2)CC(=O)N1C lists PAMPA -5.41 (log10 cm/s). For CCCN1CC(=O)N[C@H](CC(C)C)C(=O)N[C@@H](Cc2ccccc2)CC(=O)N2CCC[C@H]2C(=O)N[C@@H](CC(C)C)C(=O)N[C@@H](Cc2ccccc2)C1=O the data give PAMPA -5.55 (log10 cm/s). CC(C)C[C@H]1NC(=O)[C@H]2CCCN2C(=O)CN(Cc2ccccc2)C(=O)CN(Cc2ccccc2)C(=O)C[C@H](Cc2ccccc2)NC(=O)[C@@H]2CCCN2C(=O)[C@H](Cc2ccccc2)NC1=O has PAMPA -6.36 (log10 cm/s). CC(C)C[C@H]1NC(=O)[C@@H](C)NC(=O)[C@H](Cc2ccccc2)NC(=O)CN(Cc2ccccc2)C(=O)[C@@H]2CCCN2C(=O)C[C@H](Cc2ccccc2)NC1=O is reported with PAMPA -6.56 (log10 cm/s). Listed for CC(C)C[C@@H]1NC(=O)[C@@H]2CCCN2C(=O)CN(Cc2ccccc2)C(=O)CN(Cc2ccccc2)C(=O)[C@@H](C)NC(=O)[C@H]2CCCN2C(=O)[C@H](Cc2ccccc2)NC1=O: PAMPA -6.73 (log10 cm/s).

CC(C)C[C@@H]1NC(=O)C[C@H](Cc2ccccc2)NC(=O)[C@H](Cc2ccccc2)NC(=O)[C@@H](CC(C)C)N(C)C(=O)[C@@H]2CCCN2C(=O)CN(Cc2ccccc2)C1=O has PAMPA -5.47 (log10 cm/s). C[C@@H]1NC(=O)[C@H](Cc2ccccc2)NC(=O)CN(Cc2ccccc2)C(=O)[C@@H]2CCCN2C(=O)CN(Cc2ccccc2)C(=O)CN(Cc2ccccc2)C1=O is reported with PAMPA -6.31 (log10 cm/s). The entry for CCCN1CC(=O)N(C)[C@@H](CC(C)C)C(=O)N[C@@H](Cc2ccccc2)CC(=O)N2CCC[C@@H]2C(=O)N(C)[C@H](CC(C)C)C(=O)N[C@@H](Cc2ccccc2)C1=O lists PAMPA -5.38 (log10 cm/s). CC(C)C[C@@H]1NC(=O)[C@@H]2CCCN2C(=O)[C@H](CC(C)C)NC(=O)CN(Cc2ccccc2)C(=O)C[C@H](Cc2ccccc2)NC(=O)[C@H](Cc2ccccc2)NC1=O is reported with PAMPA -5.83 (log10 cm/s). For CC(C)C[C@@H]1C(=O)N2CCC[C@H]2C(=O)N(Cc2ccccc2)CC(=O)N[C@@H](Cc2ccccc2)C(=O)N2CCC[C@H]2C(=O)N[C@@H](C)C(=O)N(Cc2ccccc2)CC(=O)N1C the data give PAMPA -6.24 (log10 cm/s).

CC(C)C[C@H]1NC(=O)[C@@H]2CCCN2C(=O)[C@@H](CC(C)C)NC(=O)CN(Cc2ccccc2)C(=O)C[C@H](Cc2ccccc2)NC(=O)[C@H](Cc2ccccc2)NC1=O is reported with PAMPA -5.94 (log10 cm/s). Listed for CC(C)C[C@@H]1NC(=O)C[C@H](Cc2ccccc2)NC(=O)[C@H](Cc2ccccc2)NC(=O)[C@H](CC(C)C)N(C)C(=O)[C@@H]2CCCN2C(=O)CN(Cc2ccccc2)C1=O: PAMPA -5.37 (log10 cm/s). For CC(C)C[C@@H]1NC(=O)C[C@H](Cc2ccccc2)NC(=O)[C@H](Cc2ccccc2)NC(=O)[C@@H](CC(C)C)N(C)C(=O)[C@H]2CCCN2C(=O)CN(Cc2ccccc2)C1=O the data give PAMPA -5.38 (log10 cm/s). C[C@@H]1C(=O)N(Cc2ccccc2)CC(=O)N[C@@H](Cc2ccccc2)CC(=O)N2CCC[C@@H]2C(=O)N(Cc2ccccc2)CC(=O)N[C@@H](Cc2ccccc2)C(=O)N2CCC[C@H]2C(=O)N1C has PAMPA -6.73 (log10 cm/s). For C[C@@H]1NC(=O)[C@H](Cc2ccccc2)NC(=O)CN(Cc2ccccc2)C(=O)[C@H]2CCCN2C(=O)CN(Cc2ccccc2)C(=O)CN(Cc2ccccc2)C1=O the data give PAMPA -6.79 (log10 cm/s).

CC(C)C[C@H]1NC(=O)[C@@H]2CCCN2C(=O)C[C@H](Cc2ccccc2)NC(=O)CN(Cc2ccccc2)C(=O)[C@@H](C)N(C)C(=O)[C@@H]2CCCN2C(=O)[C@H](Cc2ccccc2)NC1=O has PAMPA -6.81 (log10 cm/s). Listed for CCCN1CC(=O)N[C@H](CC(C)C)C(=O)N[C@@H](Cc2ccccc2)CC(=O)N2CCC[C@@H]2C(=O)N(Cc2ccccc2)CC(=O)N[C@@H](Cc2ccccc2)C1=O: PAMPA -5.19 (log10 cm/s). CC(C)C[C@@H]1NC(=O)CN(Cc2ccccc2)C(=O)[C@H](C)NC(=O)[C@@H]2CCCN2C(=O)[C@H](Cc2ccccc2)NC(=O)[C@@H](CC(C)C)N(C)C(=O)[C@H]2CCCN2C1=O is reported with PAMPA -6.13 (log10 cm/s). CCCN1CC(=O)N(C)[C@H](CC(C)C)C(=O)N[C@H](CC(C)C)C(=O)N2CCC[C@H]2C(=O)N(Cc2ccccc2)CC(=O)N[C@@H](Cc2ccccc2)C1=O has PAMPA -5.89 (log10 cm/s). For CCCN1CC(=O)N(Cc2ccccc2)CC(=O)N[C@@H](Cc2ccccc2)CC(=O)N2CCC[C@H]2C(=O)N(C)[C@@H](CC(C)C)C(=O)N[C@@H](Cc2ccccc2)C(=O)N2CCC[C@H]2C1=O the data give PAMPA -5.64 (log10 cm/s).

The entry for CCCN1CC(=O)N[C@H](CC(C)C)C(=O)N(Cc2ccccc2)CC(=O)N2CCC[C@H]2C(=O)N(Cc2ccccc2)CC(=O)N[C@@H](Cc2ccccc2)C1=O lists PAMPA -5.83 (log10 cm/s). CC(C)C[C@H]1C(=O)N(Cc2ccccc2)CC(=O)N2CCC[C@H]2C(=O)N(Cc2ccccc2)CC(=O)N[C@@H](Cc2ccccc2)C(=O)N2CCC[C@H]2C(=O)N[C@@H](C)C(=O)N1C has PAMPA -6.50 (log10 cm/s).

2 of these entries, quoted again:

{"smiles": "C[C@@H]1C(=O)N(Cc2ccccc2)CC(=O)N[C@@H](Cc2ccccc2)CC(=O)N2CCC[C@@H]2C(=O)N(Cc2ccccc2)CC(=O)N[C@@H](Cc2ccccc2)C(=O)N2CCC[C@H]2C(=O)N1C", "PAMPA (log10 cm/s)": "-6.73"}
{"smiles": "CC(C)C[C@@H]1NC(=O)C[C@H](Cc2ccccc2)NC(=O)[C@H](Cc2ccccc2)NC(=O)[C@H](CC(C)C)N(C)C(=O)[C@@H]2CCCN2C(=O)CN(Cc2ccccc2)C1=O", "PAMPA (log10 cm/s)": "-5.37"}

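Lipid, pH, incubation time, direction and concentration are not recorded in the data file. The list need not hold all peptides of the study. Entries at the database's floor value (log10 P of -10) are not listed.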

Collected by the curators of CycPeptMPDB (Li et al. 2023) from Townsend et al. 2020, doi:10.26434/chemrxiv.13335941.v1.